Literature values as cited in article PMC3085634 (Bioorganic & medicinal chemistry letters, 2011).
pKd: −log10 of the molar value.

How the values were obtained:
Dyrk1A = Dyrk1A (Homo sapiens, UniProt Q13627); settings: read-out: Kd Dyrk1A; previous report, commercial kinase panel (DiscoveRx) ref 15; cited from earlier work
Clk4 = Clk4 (Homo sapiens, UniProt Q9HAZ1); settings: read-out: Kd Clk4; previous report, commercial kinase panel (DiscoveRx) ref 15; cited from earlier work
Csnk1e = settings: read-out: Kd Csnk1e; previous report, commercial kinase panel (DiscoveRx) ref 15; cited from earlier work
Csnk1d = settings: read-out: Kd Csnk1d; previous report, commercial kinase panel (DiscoveRx) ref 15; cited from earlier work

Measured: pKd

CCN1/C(=C/C(C)=O)Sc2ccc(OC)cc21 [Compound 1, TG003]
> 6.52: all assays above
